Source: patent US11497752B2, “Compounds and uses thereof” (Foghorn Therapeutics Inc., priority 2018, dated 2022)

Protein sequences, listed by entry. Tags and fused reporters are not part of them.
UniProt P51531, whole entry: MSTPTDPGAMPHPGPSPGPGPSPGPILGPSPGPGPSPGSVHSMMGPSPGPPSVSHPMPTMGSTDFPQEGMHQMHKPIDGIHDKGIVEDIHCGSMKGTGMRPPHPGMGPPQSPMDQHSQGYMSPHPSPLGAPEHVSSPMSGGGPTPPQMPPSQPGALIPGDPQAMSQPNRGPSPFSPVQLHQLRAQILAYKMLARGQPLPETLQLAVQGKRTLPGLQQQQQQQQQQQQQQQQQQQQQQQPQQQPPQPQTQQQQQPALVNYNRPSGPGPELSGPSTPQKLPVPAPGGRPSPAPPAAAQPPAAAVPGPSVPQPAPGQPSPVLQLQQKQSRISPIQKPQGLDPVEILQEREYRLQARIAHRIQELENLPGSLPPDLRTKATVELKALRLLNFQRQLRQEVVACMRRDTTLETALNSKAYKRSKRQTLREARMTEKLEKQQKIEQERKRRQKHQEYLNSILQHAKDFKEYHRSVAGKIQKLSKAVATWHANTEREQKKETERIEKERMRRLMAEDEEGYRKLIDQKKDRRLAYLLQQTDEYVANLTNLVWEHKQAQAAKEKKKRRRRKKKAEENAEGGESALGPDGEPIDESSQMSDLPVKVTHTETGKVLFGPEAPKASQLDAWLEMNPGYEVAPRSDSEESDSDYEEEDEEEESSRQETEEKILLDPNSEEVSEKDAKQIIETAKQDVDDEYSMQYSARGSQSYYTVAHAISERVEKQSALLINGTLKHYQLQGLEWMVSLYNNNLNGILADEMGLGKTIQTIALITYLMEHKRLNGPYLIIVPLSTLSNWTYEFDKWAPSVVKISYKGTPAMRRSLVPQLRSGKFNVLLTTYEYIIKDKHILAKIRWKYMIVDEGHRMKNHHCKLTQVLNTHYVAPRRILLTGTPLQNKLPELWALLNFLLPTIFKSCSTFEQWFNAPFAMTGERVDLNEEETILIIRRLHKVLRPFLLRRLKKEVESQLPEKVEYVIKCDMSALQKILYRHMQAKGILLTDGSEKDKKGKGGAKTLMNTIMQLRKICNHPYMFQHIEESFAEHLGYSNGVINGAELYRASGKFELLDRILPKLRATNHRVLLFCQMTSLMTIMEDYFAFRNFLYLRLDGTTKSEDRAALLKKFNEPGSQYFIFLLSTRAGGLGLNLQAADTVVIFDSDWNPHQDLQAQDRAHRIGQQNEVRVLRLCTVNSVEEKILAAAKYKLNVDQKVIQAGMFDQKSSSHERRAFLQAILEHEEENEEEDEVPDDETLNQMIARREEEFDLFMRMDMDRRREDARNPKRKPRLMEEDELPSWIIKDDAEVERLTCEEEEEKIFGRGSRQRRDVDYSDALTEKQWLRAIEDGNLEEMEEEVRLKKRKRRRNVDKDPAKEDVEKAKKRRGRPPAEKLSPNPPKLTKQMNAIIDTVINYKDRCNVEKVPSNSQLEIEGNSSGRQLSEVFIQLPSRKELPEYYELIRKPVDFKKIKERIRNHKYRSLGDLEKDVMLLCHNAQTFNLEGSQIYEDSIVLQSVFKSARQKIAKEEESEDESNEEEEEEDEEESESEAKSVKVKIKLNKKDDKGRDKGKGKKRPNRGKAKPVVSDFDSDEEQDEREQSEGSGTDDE
UniProt P51532, whole entry: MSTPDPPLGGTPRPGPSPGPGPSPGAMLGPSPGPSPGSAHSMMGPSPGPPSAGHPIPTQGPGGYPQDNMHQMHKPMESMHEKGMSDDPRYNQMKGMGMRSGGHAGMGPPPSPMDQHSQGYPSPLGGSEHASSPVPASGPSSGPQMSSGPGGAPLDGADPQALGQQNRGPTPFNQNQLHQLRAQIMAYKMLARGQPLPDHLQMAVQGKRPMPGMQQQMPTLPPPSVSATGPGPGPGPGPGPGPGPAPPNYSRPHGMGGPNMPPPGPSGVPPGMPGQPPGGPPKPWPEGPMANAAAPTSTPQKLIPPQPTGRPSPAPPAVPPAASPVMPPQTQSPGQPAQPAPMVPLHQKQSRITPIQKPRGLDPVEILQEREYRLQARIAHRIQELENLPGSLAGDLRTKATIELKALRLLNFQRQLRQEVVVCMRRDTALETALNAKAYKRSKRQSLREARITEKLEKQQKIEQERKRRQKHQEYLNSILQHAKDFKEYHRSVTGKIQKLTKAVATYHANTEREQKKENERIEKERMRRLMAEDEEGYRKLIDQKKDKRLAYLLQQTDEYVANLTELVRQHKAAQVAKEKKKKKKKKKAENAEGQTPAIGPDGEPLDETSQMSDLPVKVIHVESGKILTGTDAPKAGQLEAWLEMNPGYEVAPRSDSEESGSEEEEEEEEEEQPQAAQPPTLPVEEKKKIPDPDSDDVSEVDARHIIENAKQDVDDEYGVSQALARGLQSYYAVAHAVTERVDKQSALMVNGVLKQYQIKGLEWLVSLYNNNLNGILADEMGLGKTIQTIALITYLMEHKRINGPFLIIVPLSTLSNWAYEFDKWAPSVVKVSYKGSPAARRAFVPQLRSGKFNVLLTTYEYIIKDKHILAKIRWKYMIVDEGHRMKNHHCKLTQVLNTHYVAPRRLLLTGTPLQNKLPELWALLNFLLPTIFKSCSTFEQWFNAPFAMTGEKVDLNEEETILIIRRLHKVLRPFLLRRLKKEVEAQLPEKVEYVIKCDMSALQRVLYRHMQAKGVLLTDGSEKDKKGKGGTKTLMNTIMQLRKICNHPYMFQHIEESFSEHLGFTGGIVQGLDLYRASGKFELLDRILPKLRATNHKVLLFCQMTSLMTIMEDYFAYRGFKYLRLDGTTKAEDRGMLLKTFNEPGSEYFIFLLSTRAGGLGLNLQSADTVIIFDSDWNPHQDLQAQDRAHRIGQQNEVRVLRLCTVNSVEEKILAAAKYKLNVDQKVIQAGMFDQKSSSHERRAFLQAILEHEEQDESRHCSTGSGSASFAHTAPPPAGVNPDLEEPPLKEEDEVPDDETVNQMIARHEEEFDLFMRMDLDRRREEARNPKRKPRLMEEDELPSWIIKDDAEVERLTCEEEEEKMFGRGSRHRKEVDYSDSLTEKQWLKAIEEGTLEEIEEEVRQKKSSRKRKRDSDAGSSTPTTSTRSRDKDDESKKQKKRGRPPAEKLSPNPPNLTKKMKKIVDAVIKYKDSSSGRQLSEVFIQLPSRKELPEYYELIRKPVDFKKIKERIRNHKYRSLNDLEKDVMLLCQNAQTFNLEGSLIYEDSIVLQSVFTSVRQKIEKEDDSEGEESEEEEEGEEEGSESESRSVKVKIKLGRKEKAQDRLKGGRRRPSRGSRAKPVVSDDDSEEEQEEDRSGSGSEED

Experiments:
BRM = BRM (Homo sapiens, UniProt P51531); experiment: ATPase catalytic activity of BRM (ADP-Glo in vitro biochemical assay)
BRG-1 = BRG-1 (Homo sapiens, UniProt P51532); experiment: ATPase catalytic activity of BRG-1 (ADP-Glo in vitro biochemical assay); conditions: for BRG1 Max % Inhibition: Table 5

SMILES	IC50 (BRM)	BRM Max % Inhibition (BRM; Table 5)	BRG1 Max % Inhibition (BRG-1)	further results
C[C@H](NC(=O)c1cccc(S(=O)(=O)N(C)C)c1)C(=O)Nc1nc(-c2ccccc2)cs1 [Compound 12, (S)-3-(N,N-dimethylsulfamoyl)-N-(1-oxo-1-((4-phenylthiazol-2-yl)amino)propan-2-yl)benzamide]	1000 to 10000 nM	>80%	>60%	IC50 (BRG-1): > 10000 nM
CC[C@H](NC(=O)c1ccccc1)C(=O)Nc1nc(-c2ccccc2)cs1 [Compound 45, N-[(1S)-1-[(4-phenylthiazol-2-yl)carbamoyl]propyl]benzamide]	> 10000 nM	–	–	–
CC(C)CC[C@H](NC(=O)c1ccccc1)C(=O)Nc1nc(-c2ccccc2)cs1 [Compound 46, N-[(1S)-4-methyl-1-[(4-phenylthiazol-2-yl)carbamoyl]pentyl]benzamide]	–	>60%	>70%	–
O=C(N[C@@H](CCc1ccccc1)C(=O)Nc1nc(-c2ccccc2)cs1)c1ccccc1 [Compound 49, N-[(1S)-3-phenyl-1-[(4-phenylthiazol-2-yl)carbamoyl]propyl]benzamide]	–	>50%	>30%	–
CCC[C@H](NC(=O)c1ccccc1)C(=O)Nc1nc(-c2ccccc2)cs1 [Compound 51, N-[(1S)-1-[(4-phenylthiazol-2-yl)carbamoyl]butyl]benzamide]	–	>90%	>80%	–
CSCC[C@H](NC(=O)c1ccc(N)cc1)C(=O)Nc1nc(-c2ccccc2)cs1 [Compound 52, 4-amino-N-[(1S)-3-methylsulfanyl-1-[(4-phenylthiazol-2-yl)carbamoyl]propyl]benzamide]	< 1000 nM	–	–	–
CSCC[C@H](NC(=O)c1ccc(O)cc1)C(=O)Nc1nc(-c2ccccc2)cs1 [Compound 53, 4-hydroxy-N-[(1S)-3-methylsulfanyl-1-[(4-phenylthiazol-2-yl)carbamoyl]propyl]benzamide]	–	>95%	>90%	–
CSCC[C@H](NC(=O)c1cccs1)C(=O)Nc1nc(-c2ccccc2)cs1 [Compound 58, N-[(1S)-3-methylsulfanyl-1-[(4-phenylthiazol-2-yl)carbamoyl]propyl]thiophene-2-carboxamide]	1000 to 10000 nM	–	–	–
CSCC[C@H](NC(=O)c1ccccc1N)C(=O)Nc1nc(-c2ccccc2)cs1 [Compound 63, 2-amino-N-[(1S)-3-methylsulfanyl-1-[(4-phenylthiazol-2-yl)carbamoyl]propyl]benzamide]	> 10000 nM	–	–	–
CSCC[C@H](NC(=O)c1ccc(N)cc1)C(=O)Nc1nc(-c2cccc(-c3ccncc3)c2)cs1 [Compound 87, (S)-4-amino-N-(4-(methylthio)-1-oxo-1-((4-(3-(pyridin-4-yl)phenyl)thiazol-2-yl)amino)butan-2-yl)benzamide]	< 100 nM	–	–	BRM Max % Inhibition (BRM; Table 6): >95%
CSCC[C@@H](NC(=O)c1ccc(N)cc1)C(=O)Nc1nc(-c2cccc(-c3ccncc3)c2)cs1 [Compound 155, (R)-4-amino-N-(4-(methylthio)-1-oxo-1-((4-(3-(pyridin-4-yl)phenyl)thiazol-2-yl)amino)butan-2-yl)benzamide]	100 to 1000 nM	–	–	–
